Literature values as cited in US20140220152A1, “Compositions and Methods for Detecting, Treating, or Preventing Reductive Stress” (University of Utah Research Foundation, priority 2007, published 2014).

Tested on: human fibrinogen
Settings: in vitro

## Human serum albumin: serum albumin; thirty-four out of thirty-five cysteines exist as oxidized disulfides
  hydroxy radical-induced aggregation of human fibrinogen: prevents
